Molecules are shown by their SMILES.

Sequences of proteins named here, by UniProt entry; tags and fusion partners are left off. Residues count along the entry.
UniProt O42275, 24-633 limits assumed: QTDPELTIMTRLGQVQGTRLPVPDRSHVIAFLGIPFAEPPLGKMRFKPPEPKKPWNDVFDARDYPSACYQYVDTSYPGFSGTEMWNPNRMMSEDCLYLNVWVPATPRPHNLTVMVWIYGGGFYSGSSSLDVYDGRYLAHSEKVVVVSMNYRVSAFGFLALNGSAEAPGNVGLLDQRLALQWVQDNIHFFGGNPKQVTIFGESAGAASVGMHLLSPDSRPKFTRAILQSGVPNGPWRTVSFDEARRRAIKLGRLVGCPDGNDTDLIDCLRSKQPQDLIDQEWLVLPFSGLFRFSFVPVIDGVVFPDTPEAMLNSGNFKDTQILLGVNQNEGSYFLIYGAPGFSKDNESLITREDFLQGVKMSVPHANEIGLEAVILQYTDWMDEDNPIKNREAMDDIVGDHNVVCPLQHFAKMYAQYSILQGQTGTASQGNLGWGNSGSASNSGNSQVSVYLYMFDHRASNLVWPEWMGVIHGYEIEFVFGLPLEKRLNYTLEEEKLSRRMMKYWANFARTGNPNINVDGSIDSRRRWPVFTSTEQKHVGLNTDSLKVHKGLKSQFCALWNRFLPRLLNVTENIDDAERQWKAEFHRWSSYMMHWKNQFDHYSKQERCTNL

For experiment [1], the target named is Acetylcholinesterase (Electrophorus electricus, UniProt O42275). The experiment in a line: ASSAY_NAME: ChEMBL_954155 (CHEMBL2351670) […].
Experiment [2] has as its target Acetylcholinesterase (Rattus norvegicus, UniProt P37136). Briefly: ASSAY_NAME: ChEMBL_954152 (CHEMBL2351425) […].

Regarding `CCOP(=O)(OCC)Oc1ccc([N+](=O)[O-])cc1`, the kon (M-1-s-1) at Acetylcholinesterase [1] is 333 M⁻¹ s⁻¹; at Acetylcholinesterase [2], 267 M⁻¹ s⁻¹.

The values above are taken from BindingDB's records for 23453838.
